Activity data for one compound are collected here from ChEMBL document CHEMBL6109073, “Discovery of β-amino acid substituted naphthalene sulfonamide derivatives as potent Kelch-like ECH-associated protein 1-nuclear factor erythroid 2-related factor 2 (Keap1-Nrf2) protein-protein interaction inhibitors for ulcerative colitis management” (Eur J Med Chem, 2025).

The data set deals with NCM460. In words: Cytotoxicity against human NCM460 cells at 100 uM by CCK8 method. In kind it is toxicity, cell-based. Conditions: ncm460, 100 µM. On the technique in general: Tetrazolium assays rely on reduction of a dye to a coloured formazan, in cell work by metabolically active cells.

In the case of `Cc1cc(C)c(S(=O)(=O)N(CC(=O)O)c2ccc(N[C@@H](C)CC(=O)O)c3ccccc23)c(C)c1`, the Activity entry is on record as “Non-toxic”.
